ChEMBL document CHEMBL1132231, “New generation dopaminergic agents. 6. Structure-activity relationship studies of a series of 4-(aminoethoxy)indole and 4-(aminoethoxy)indolone derivatives based on the newly discovered 3-hydroxyphenoxyethylamine D2 template” (J Med Chem, 1999)
pKi: −log10 of the molar value.

Sequences of proteins named here, by UniProt entry; tags and fusion partners are left off.
UniProt P61169, whole entry: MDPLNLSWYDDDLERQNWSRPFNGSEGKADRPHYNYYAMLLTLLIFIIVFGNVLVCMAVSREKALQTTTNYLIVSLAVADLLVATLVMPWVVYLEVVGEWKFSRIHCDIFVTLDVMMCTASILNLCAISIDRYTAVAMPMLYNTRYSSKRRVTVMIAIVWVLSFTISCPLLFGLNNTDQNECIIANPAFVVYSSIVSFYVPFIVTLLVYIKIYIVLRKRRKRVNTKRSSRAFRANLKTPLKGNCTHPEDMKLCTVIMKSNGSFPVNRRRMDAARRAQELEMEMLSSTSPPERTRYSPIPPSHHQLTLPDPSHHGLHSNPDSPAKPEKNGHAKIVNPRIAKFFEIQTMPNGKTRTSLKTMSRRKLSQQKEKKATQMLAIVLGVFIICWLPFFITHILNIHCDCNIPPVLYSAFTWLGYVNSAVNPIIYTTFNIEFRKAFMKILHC

Legend:
D(2) dopamine receptor = D(2) dopamine receptor (Rattus norvegicus, UniProt P61169); test: In vitro low binding affinity towards Dopamine receptor D2 by the displacement of [3H]spiperone radioligand in rat striatal membranes; format: cell membranes, Membrane
[1] = biological target: D(2) dopamine receptor (Rattus norvegicus) (UniProt P61169); test: Ratio of Dopamine D2 receptor (low)and Dopamine D2 receptor (high)
How it was run: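 Ratio Ki(low)/Ki(high). Ki(low) comes from displacement of 1 nM [3H]spiperone in striatal membranes with 1 mM GppNHp and NaCl, 37 °C for 5 min. […] Both Ki values derived by Cheng-Prusoff from nine concentrations in triplicate; the ratio serves as an estimate of intrinsic activity.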

pKi (D(2) dopamine receptor) | Ratio [1] | SMILES
8.41 |  | O=C1Cc2c(OCCNCc3cccc(-c4ccccc4)c3)ccc(F)c2N1
 | 1 | O=C(c1c[nH]c2c(Cl)ccc(OCCNCc3ccccc3)c12)C(F)(F)F
